{"source": "BindingDB's records for doi:10.1111/cbdd.12810", "about": "(Korea Institute of Science and Technology, 2016)", "biological_target": "T1, Potassium channel subfamily K member 2 (Homo sapiens, UniProt O95069)", "T1 sequence (O95069 whole entry)": "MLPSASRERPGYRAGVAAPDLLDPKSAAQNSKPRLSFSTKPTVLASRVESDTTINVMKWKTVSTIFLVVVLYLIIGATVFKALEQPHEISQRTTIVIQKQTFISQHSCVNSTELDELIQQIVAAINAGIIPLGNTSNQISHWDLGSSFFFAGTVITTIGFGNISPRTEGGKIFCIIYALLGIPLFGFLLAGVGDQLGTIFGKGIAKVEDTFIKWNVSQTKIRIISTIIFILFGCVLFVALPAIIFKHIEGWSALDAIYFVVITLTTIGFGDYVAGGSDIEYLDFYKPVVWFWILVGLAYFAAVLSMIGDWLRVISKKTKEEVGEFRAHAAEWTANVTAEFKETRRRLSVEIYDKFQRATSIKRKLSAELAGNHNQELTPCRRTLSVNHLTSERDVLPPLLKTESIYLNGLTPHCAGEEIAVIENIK", "test": "The hTREK1 stable cell lines were seeded at a density of 10 000 cells/well in a 12-well plate. Whole-cell membrane currents were amplified using the Axopatch 200A patch-clamp system. Currents were elicited by 1-second voltage ramps descending from +50 mV to -150 mV (from a holding potential of -70 mV). […] Data were sampled at 5 kHz and filtered at 2 kHz. Cell membrane capacitance was measured using the 'membrane test' protocolbuilt into pClampex. The bath solution contained (in mM) 150 NaCl, 10 HEPES, 3 KCl, 2 CaCl2, 2 MgCl2, and 5.5 glucose adjusted to pH 7.3 with NaOH. […] All experiments were performed at a room temperature of 20-22 °C. TREK1 currents were recorded in the presence of each 10 μm hit compounds. The block percentage of inhibitors was obtained by measuring the percentage of remaining current.", "data": [{"compound": "OCCN1CCN(CCC=C2c3ccccc3Sc3ccc(C(F)(F)F)cc32)CC1", "note": "[CAS_53772-85-3]", "values": [{"measurement": "EC50", "value": 2000, "unit": "nM"}]}]}
